Experimental data taken from US12091425B2 (AMGEN INC., priority 2016, dated 2024).
pIC50: −log10 of the molar value. Read-outs that look alike come from different tables or passages of the source.

Sequences of proteins named here, by UniProt entry; tags and fusion partners are left off. Residues count along the entry.
UniProt Q07820, 171-327 limits assumed: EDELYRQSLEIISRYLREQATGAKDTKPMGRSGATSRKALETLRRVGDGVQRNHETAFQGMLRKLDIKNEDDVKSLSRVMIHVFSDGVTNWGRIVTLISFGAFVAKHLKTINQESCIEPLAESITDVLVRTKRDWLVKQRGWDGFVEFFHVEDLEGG

Experiments:
[1] = target: Mcl-1/Bim interaction, recombinant human Mcl-1 (171-327) (Homo sapiens, UniProt Q07820); assay: Cell free Mcl-1: Bim Affinity Assay (Mcl-1 HTRF); format: binding; conditions: read-out: Mcl-1 HTRF
[2] = tested on: OPM-2 human multiple myeloma cell line; assay: Cell Viability Assay (OPM-2 10 FBS); format: cell-based
[3] = TR-FRET, 0.1 nM Mcl-1 (171-327), 0.05 nM biotin-Bim (51-76)
[4] = read-out: OPM-2 10% FBS, OPM-2 cells, 16 h, CellTiter-Glo
[5] = read-out: OPM-2 10% FBS, OPM-2 cells, 16 h incubation, CellTiter-Glo
[6] = cell free Mcl-1:Bim TR-FRET, recombinant human Mcl-1 (171-327)

Structure (SMILES) | pIC50 [1, 3] | pIC50 [2, 4] | pIC50 [2, 5] | pIC50 [1, 6]
O=C1NS(=O)(=O)C(Cc2ccccn2)CC/C=C/[C@H](O)[C@@H]2CC[C@H]2CN2C[C@@]3(CCCc4cc(Cl)ccc43)COc3ccc1cc32 (some centres unmarked) | 9.25 | 6.15 |  | 
CC1CC[C@H](C)S(=O)(=O)NC(=O)c2ccc3c(c2)N(C[C@@H]2CC[C@H]2C(O)C1)C[C@@]1(CCCc2cc(Cl)ccc21)CO3 (single isomer, unassigned) [Example 267] | 8.39 | 5.82 |  | 
CCC1C(C)C(C)/C=C/[C@H](O)[C@@H]2CC[C@H]2CN2C[C@@]3(CCCc4cc(Cl)ccc43)COc3ccc(cc32)C(=O)NS1(=O)=O (single isomer, unassigned) | 8.34 |  | 5.28 | 
CC1C(C2CC2)C/C=C/[C@H](O)[C@@H]2CC[C@H]2CN2C[C@@]3(CCCc4cc(Cl)ccc43)COc3ccc(cc32)C(=O)NS1(=O)=O (single isomer, unassigned) [Example 678] |  | 5.14 |  | 8.10
CCC1C(OC)C/C=C/[C@H](OCCN2CCOCC2)[C@@H]2CC[C@H]2CN2C[C@@]3(CCCc4cc(Cl)ccc43)COc3ccc(cc32)C(=O)NS1(=O)=O (some centres unmarked) | 9.33 | 7.25 |  | 
O=C1NS(=O)(=O)N(CC2CCO2)CC/C=C/[C@H](O)[C@@H]2CC[C@H]2CN2C[C@@]3(CCCc4cc(Cl)ccc43)COc3ccc1cc32 (single isomer, unassigned) [Example 38] | 9.26 | 6.11 |  | 
O=C1NS(=O)(=O)C2COCC2C/C=C/[C@@H](O)[C@@H]2CC[C@H]2CN2C[C@@]3(CCCc4cc(Cl)ccc43)COc3ccc1cc32 (single isomer, unassigned) | 7.85 |  | 4.61 | 
CCC1C(OC)C/C=C/[C@H](OC)[C@@H]2CC[C@H]2CN2C[C@@]3(CCCc4cc(Cl)ccc43)COc3ccc(cc32)C(=O)NS1(=O)=O (single isomer, unassigned) | 9.28 | 6.58 |  | 
CO[C@H]1/C=C/C[C@H](C(C)O)[C@@H](C)S(=O)(=O)NC(=O)c2ccc3c(c2)N(C[C@@H]2CC[C@H]21)C[C@@]1(CCCc2cc(Cl)ccc21)CO3 (single isomer, unassigned) [Example 4] | 8.96 | 6.53 |  | 
COC1/C=C/C(C)C(C)CS(=O)(=O)NC(=O)c2ccc3c(c2)N(C[C@@H]2CC[C@@H]12)C[C@@]1(CCCc2cc(Cl)ccc21)CO3 (single isomer, unassigned) | 9.44 |  | 6.80 | 
O=C1NS(=O)(=O)C(CC2CC2)CCC=C[C@H](O)[C@@H]2CC[C@H]2CN2C[C@@]3(CCCc4cc(Cl)ccc43)COc3ccc1cc32 (single isomer, unassigned) [Example 158] | 8.12 | 5.03 |  | 
CNC1CC(O)[C@@H]2CC[C@H]2CN2C[C@@]3(CCCc4cc(Cl)ccc43)COc3ccc(cc32)C(=O)NS(=O)(=O)[C@H](C)[C@@H](C)C1 (single isomer, unassigned) [Example 257] | 8.34 | 4.75 |  | 
C[C@@H]1[C@@H](C)CC(N(C)C)CC(O)[C@@H]2CC[C@H]2CN2C[C@@]3(CCCc4cc(Cl)ccc43)COc3ccc(cc32)C(=O)NS1(=O)=O (single isomer, unassigned) [Example 247] | 7.89 | 4.51 |  | 
CNC1CC(O)[C@@H]2CC[C@H]2CN2C[C@@]3(CCCc4cc(Cl)ccc43)COc3ccc(cc32)C(=O)NS(=O)(=O)[C@H](C)[C@@H](C)C1 (single isomer, unassigned) [Example 256] | 8.25 | 4.56 |  | 
CO[C@H]1/C=C/CC(O)C(C)S(=O)(=O)NC(=O)c2ccc3c(c2)N(C[C@@H]2CC[C@H]21)C[C@@]1(CCCc2cc(Cl)ccc21)CO3 (single isomer, unassigned) |  | 5.74 |  | 8.84
CC1C/C=C\[C@@H](O)[C@@H]2CC[C@H]2CN2C[C@@]3(CCCc4cc(Cl)ccc43)COc3ccc(cc32)C(=O)NS(=O)(=O)C1 (single isomer, unassigned) [Example 232] | 8.79 | 5.46 |  | 
CO[C@H]1/C=C/CCC(C(O)c2nccs2)S(=O)(=O)NC(=O)c2ccc3c(c2)N(C[C@@H]2CC[C@H]21)C[C@@]1(CCCc2cc(Cl)ccc21)CO3 (some centres unmarked) |  | 4.87 |  | 8.12
CC12C/C=C/[C@H](O)[C@@H]3CC[C@H]3CN3C[C@@]4(CCCc5cc(Cl)ccc54)COc4ccc(cc43)C(=O)NS(=O)(=O)C1CCC2 (single isomer, unassigned) | 8.15 | 5.24 |  | 
CC1CC(O)[C@@H]2CC[C@H]2CN2C[C@@]3(CCCc4cc(Cl)ccc43)COc3ccc(cc32)C(=O)NS(=O)(=O)C[C@@H](C)C1 (single isomer, unassigned) [Example 268] | 8.34 | 5.44 |  | 

Structure (SMILES) | pIC50 [1, 3] | pIC50 [2, 4] | pIC50 [2, 5] | pIC50 [1, 6]
O=C1NS(=O)(=O)CC2CC2/C=C/[C@H](O)[C@@H]2CC[C@H]2CN2C[C@@]3(CCCc4cc(Cl)ccc43)COc3ccc1cc32 (single isomer, unassigned) [Example 802] |  | 5.48 |  | 8.35
CC1/C=C/C(O)[C@@H]2CC[C@H]2CN2C[C@@]3(CCCc4cc(Cl)ccc43)COc3ccc(cc32)C(=O)NS(=O)(=O)CC1C (single isomer, unassigned) [Example 1060] | 9.75 |  | 6.94 | 
C[C@@H]1[C@@H](C)CC(CC(=O)O)CC[C@@H]2CC[C@H]2CN2C[C@@]3(CCCc4cc(Cl)ccc43)COc3ccc(cc32)C(=O)NS1(=O)=O (some centres unmarked) | 9.99 | 5.64 |  | 
CC1C/C=C/[C@H](O)[C@@H]2CC[C@H]2CN2C[C@@]3(CCCc4cc(Cl)ccc43)COc3ccc(cc32)C(=O)NS(=O)(=O)C1Cc1ccsc1 (single isomer, unassigned) |  | 5.32 |  | 7.54
COC1C2=CCC(CC2)CS(=O)(=O)NC(=O)c2ccc3c(c2)N(C[C@@H]2CC[C@@H]12)C[C@@]1(CCCc2cc(Cl)ccc21)CO3 (single isomer, unassigned) | 7.70 | 4.82 |  | 
CC1/C=C/C(O)[C@@H]2CC[C@H]2CN2C[C@@]3(CCCc4cc(Cl)ccc43)COc3ccc(cc32)C(=O)NS(=O)(=O)CC1C (single isomer, unassigned) [Example 1063] | 7.95 |  | 4.74 | 
CC1C/C=C/[C@H](O)[C@@H]2CC[C@H]2CN2C[C@@]3(CCCc4cc(Cl)ccc43)COc3ccc(cc32)C(=O)NS(=O)(=O)C1CC1CCOCC1 (single isomer, unassigned) [Example 188] | 7.95 | 5.41 |  | 
O=C1NS(=O)(=O)CC(c2ccccc2)CCC[C@H](O)[C@@H]2CC[C@H]2CN2C[C@@]3(CCCc4cc(Cl)ccc43)COc3ccc1cc32 (single isomer, unassigned) |  | 4.64 |  | 7.55
COCCC1CC(C)/C=C/[C@H](OC)[C@@H]2CC[C@H]2CN2C[C@@]3(CCCc4cc(Cl)ccc43)COc3ccc(cc32)C(=O)NS1(=O)=O (single isomer, unassigned) |  | 4.82 |  | 7.93
O=C1NS(=O)(=O)CC(c2ccccc2)C/C=C/[C@H](O)[C@@H]2CC[C@H]2CN2C[C@@]3(CCCc4cc(Cl)ccc43)COc3ccc1cc32 (single isomer, unassigned) |  | 5.69 |  | 8.29
O=C1NS(=O)(=O)N(CC2CCO2)CC/C=C/[C@H](O)[C@@H]2CC[C@H]2CN2C[C@@]3(CCCc4cc(Cl)ccc43)COc3ccc1cc32 (single isomer, unassigned) [Example 39] | 9.19 | 6.06 |  | 
C[C@@H]1[C@@H](C)CC(CC(=O)O)/C=C/[C@@H]2CC[C@H]2CN2C[C@@]3(CCCc4cc(Cl)ccc43)COc3ccc(cc32)C(=O)NS1(=O)=O (some centres unmarked) | 10.29 | 5.48 |  | 
COC1C/C=C/[C@H](OC)[C@@H]2CC[C@H]2CN2C[C@@]3(CCCc4cc(Cl)ccc43)COc3ccc(cc32)C(=O)NS(=O)(=O)C1C (single isomer, unassigned) [Example 715] |  | 4.86 |  | 8.14
CO[C@H]1/C=C/C[C@H](C(C)O)[C@@H](C)S(=O)(=O)NC(=O)c2ccc3c(c2)N(C[C@@H]2CC[C@H]21)C[C@@]1(CCCc2cc(Cl)ccc21)CO3 (single isomer, unassigned) [Example 3] | 9.29 | 6.34 |  | 
O=C1NS(=O)(=O)C(CN2CCOCC2)CC/C=C\[C@H](O)[C@@H]2CC[C@H]2CN2C[C@@]3(CCCc4cc(Cl)ccc43)COc3ccc1cc32 (some centres unmarked) | 9.23 | 6.00 |  | 
CC1C/C=C\[C@@H](O)[C@@H]2CC[C@H]2CN2C[C@@]3(CCCc4cc(Cl)ccc43)COc3ccc(cc32)C(=O)NS(=O)(=O)C1 (single isomer, unassigned) [Example 233] | 8.33 | 5.33 |  | 
CC1/C=C\C[C@H](O)[C@@H]2CC[C@H]2CN2C[C@@]3(CCCc4cc(Cl)ccc43)COc3ccc(cc32)C(=O)NS(=O)(=O)C1CC1CC1 (some centres unmarked) |  | 5.65 |  | 8.43
CC1C/C=C/[C@H](O)[C@@H]2CC[C@H]2CN2C[C@@]3(CCCc4cc(Cl)ccc43)COc3ccc(cc32)C(=O)NS(=O)(=O)C1Cc1ccccc1 (single isomer, unassigned) |  | 5.18 |  | 7.86
